Assays:
JAK1 = JAK1 (Homo sapiens, UniProt P23458); experiment: Biochemical JAK1 kinase assay (LanthaScreen)
Description: (§1) A panel of four LanthaScreen JAK biochemical assays (JAK1, 2, 3 and Tyk2) were carried in a common kinase reaction buffer (50 mM HEPES, pH 7.5, 0.01% Brij-35, 10 mM MgCl2, and 1 mM EGTA). Recombinant GST-tagged JAK enzymes and a GFP-tagged STAT1 peptide substrate were obtained from Life Technologies.
Serially or discretely diluted compounds were pre-incubated with each of the four JAK enzymes and the substrate in white 384-well microplates (Corning) at ambient temperature for 1 h. ATP was subsequently added to initiate the kinase reactions in 10 μL total volume, with 1% DMSO. The final enzyme concentrations for JAK1, 2, 3 and Tyk2 are 4.2 nM, 0.1 nM, 1 nM, and 0.25 nM respectively; the corresponding Km ATP concentrations used are 25 μM, 3 μM, 1.6 μM, and 10 μM; while the substrate concentration is 200 nM for all four assays. Kinase reactions were allowed to proceed for 1 hour at ambient temperature before a 10 μL preparation of EDTA (10 mM final concentration) and Tb-anti-pSTAT1 (pTyr701) antibody (Life Technologies, 2 nM final concentration) in TR-FRET dilution buffer (Life Technologies) was added. The plates were allowed to incubate at ambient temperature for 1 h before being read on the EnVision reader (Perkin Elmer). Emission ratio signals (520 nm/495 nm) were recorded and utilized to calculate the percent inhibition values based on DMSO and background controls.
(§2) For dose-response analysis, percent inhibition data were plotted vs. compound concentrations, and IC50 values were determined from a 4-parameter robust fit model with the Prism software (GraphPad Software). Results were expressed as pIC50 (negative logarithm of IC50) and subsequently converted to pKi (negative logarithm of dissociation constant, Ki) using the Cheng-Prusoff equation.

Amino acid sequences for entries named in this document (tags omitted).
UniProt P23458, whole entry: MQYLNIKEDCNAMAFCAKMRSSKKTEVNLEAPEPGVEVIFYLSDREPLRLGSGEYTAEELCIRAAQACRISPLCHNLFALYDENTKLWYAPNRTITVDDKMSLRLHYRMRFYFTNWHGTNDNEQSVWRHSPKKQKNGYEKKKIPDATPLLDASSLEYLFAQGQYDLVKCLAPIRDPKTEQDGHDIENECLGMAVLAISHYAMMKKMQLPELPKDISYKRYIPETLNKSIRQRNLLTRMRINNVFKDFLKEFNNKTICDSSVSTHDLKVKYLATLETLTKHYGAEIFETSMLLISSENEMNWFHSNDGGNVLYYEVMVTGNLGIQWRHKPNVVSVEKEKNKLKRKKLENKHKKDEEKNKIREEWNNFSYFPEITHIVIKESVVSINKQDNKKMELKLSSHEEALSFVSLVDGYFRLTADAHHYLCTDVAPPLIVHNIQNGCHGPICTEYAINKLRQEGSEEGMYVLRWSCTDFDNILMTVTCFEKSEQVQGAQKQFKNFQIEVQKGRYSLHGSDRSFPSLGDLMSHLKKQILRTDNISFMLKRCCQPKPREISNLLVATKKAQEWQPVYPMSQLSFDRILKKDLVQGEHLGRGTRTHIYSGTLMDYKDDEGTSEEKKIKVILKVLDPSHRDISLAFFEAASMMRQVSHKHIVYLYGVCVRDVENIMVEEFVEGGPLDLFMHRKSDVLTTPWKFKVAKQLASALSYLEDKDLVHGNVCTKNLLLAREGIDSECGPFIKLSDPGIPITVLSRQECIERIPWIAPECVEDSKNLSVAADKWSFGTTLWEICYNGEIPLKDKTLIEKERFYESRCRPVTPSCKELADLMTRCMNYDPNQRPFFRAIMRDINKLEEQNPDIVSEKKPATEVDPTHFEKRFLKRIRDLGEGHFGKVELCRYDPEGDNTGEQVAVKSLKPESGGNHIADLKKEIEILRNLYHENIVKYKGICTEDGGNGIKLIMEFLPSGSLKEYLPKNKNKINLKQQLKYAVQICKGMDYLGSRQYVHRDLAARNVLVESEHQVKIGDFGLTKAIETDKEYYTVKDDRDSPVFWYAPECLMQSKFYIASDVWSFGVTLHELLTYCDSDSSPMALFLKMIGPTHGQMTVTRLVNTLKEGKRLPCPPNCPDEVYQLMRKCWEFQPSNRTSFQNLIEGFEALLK
UniProt P52333, whole entry: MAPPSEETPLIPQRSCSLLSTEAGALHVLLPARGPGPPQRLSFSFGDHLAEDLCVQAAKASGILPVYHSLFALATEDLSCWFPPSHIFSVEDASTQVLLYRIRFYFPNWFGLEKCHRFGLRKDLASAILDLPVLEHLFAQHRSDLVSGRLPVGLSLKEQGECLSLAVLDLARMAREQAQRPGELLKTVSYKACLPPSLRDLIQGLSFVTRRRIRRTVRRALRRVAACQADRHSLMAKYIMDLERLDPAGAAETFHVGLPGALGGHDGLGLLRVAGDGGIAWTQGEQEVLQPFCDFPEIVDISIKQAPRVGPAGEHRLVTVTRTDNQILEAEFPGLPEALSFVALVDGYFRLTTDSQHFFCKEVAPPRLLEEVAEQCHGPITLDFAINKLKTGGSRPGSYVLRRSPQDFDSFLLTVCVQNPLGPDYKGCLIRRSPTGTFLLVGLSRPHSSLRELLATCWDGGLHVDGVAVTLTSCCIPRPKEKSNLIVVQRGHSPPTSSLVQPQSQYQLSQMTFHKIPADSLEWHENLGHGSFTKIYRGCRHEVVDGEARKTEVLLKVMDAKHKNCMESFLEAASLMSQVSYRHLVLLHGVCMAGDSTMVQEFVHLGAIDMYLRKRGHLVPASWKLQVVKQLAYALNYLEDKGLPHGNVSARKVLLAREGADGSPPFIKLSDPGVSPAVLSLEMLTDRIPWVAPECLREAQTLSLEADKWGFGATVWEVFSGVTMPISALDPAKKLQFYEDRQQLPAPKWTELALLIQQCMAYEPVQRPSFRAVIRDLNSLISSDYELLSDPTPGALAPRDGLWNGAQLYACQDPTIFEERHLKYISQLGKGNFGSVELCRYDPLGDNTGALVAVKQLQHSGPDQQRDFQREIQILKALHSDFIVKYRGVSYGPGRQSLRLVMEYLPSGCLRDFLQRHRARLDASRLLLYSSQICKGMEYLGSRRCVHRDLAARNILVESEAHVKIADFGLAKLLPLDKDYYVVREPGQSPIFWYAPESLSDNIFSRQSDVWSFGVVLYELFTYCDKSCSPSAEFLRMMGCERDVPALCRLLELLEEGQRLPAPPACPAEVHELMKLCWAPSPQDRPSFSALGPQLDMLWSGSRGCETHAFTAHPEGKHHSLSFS
UniProt P29597, whole entry: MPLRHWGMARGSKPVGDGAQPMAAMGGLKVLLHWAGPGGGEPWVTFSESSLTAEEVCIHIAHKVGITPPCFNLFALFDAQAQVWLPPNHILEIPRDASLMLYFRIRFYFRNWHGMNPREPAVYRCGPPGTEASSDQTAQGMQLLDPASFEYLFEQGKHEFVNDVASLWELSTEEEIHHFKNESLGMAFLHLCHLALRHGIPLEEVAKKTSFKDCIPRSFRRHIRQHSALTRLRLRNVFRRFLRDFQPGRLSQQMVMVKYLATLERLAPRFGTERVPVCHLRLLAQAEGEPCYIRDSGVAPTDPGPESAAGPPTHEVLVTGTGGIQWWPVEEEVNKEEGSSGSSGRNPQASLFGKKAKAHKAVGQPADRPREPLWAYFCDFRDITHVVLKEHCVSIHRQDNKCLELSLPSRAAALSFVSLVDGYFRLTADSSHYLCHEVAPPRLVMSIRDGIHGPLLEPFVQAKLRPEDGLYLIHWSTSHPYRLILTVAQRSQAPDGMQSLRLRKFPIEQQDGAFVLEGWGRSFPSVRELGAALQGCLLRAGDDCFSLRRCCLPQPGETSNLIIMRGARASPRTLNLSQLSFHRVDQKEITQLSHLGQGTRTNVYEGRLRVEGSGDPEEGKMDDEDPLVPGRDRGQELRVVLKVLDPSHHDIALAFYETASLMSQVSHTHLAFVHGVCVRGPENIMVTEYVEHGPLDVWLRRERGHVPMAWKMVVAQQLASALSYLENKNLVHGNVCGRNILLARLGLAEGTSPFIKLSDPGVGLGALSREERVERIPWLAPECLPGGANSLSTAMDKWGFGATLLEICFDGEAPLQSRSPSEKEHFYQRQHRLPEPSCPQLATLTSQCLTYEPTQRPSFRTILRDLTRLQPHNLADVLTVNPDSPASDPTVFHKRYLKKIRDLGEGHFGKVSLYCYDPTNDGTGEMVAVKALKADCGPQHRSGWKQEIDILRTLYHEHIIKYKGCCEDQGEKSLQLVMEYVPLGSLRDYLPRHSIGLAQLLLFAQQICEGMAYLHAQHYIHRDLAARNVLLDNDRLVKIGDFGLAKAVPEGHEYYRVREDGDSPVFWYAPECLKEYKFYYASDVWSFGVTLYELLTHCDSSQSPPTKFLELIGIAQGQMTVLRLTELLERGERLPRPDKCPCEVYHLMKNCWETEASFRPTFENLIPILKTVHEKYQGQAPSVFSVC
UniProt O60674, whole entry: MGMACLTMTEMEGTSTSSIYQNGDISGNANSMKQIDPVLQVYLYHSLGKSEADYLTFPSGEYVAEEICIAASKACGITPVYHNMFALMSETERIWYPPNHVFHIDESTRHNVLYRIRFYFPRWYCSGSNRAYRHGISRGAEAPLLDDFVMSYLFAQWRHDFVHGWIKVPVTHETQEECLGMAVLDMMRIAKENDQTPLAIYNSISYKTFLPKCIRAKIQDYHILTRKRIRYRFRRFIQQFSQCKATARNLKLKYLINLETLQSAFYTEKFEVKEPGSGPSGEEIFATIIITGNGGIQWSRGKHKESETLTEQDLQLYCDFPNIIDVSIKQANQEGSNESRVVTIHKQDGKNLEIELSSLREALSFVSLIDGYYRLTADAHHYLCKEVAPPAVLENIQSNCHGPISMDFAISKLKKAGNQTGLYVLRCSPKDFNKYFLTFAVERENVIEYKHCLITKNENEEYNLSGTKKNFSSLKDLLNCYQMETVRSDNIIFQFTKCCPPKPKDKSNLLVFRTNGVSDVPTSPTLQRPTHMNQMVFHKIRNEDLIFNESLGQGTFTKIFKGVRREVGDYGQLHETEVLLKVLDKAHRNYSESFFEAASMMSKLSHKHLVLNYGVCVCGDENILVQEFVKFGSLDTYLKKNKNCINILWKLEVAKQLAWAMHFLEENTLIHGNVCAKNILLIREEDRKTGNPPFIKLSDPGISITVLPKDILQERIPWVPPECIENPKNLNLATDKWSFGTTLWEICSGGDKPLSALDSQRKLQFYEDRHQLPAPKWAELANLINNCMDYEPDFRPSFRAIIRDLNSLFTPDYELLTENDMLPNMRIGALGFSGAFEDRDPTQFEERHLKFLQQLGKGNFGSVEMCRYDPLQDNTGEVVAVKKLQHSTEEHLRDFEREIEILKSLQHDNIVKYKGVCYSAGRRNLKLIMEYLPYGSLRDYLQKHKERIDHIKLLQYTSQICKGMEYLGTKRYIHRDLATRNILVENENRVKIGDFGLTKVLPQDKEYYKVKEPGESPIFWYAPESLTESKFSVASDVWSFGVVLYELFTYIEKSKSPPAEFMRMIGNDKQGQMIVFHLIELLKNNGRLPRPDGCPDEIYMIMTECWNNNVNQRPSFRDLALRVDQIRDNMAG

JAK3 = JAK3 (Homo sapiens, UniProt P52333); experiment: Biochemical JAK3 kinase assay (LanthaScreen)
Tyk2 = Tyk2 (Homo sapiens, UniProt P29597); experiment: Biochemical Tyk2 kinase assay (LanthaScreen)
Description: as §1
Serially or discretely diluted compounds were pre-incubated with each of the four JAK enzymes and the substrate in white 384-well microplates (Corning) at ambient temperature for 1 h. ATP was subsequently added to initiate the kinase reactions in 10 μL total volume, with 1% DMSO. […] The plates were allowed to incubate at ambient temperature for 1 h before being read on the EnVision reader (Perkin Elmer). Emission ratio signals (520 nm/495 nm) were recorded and utilized to calculate the percent inhibition values based on DMSO and background controls.
as §2

JAK2 = JAK2 (Homo sapiens, UniProt O60674); experiment: Biochemical JAK2 kinase assay (LanthaScreen)
[1] = tested on: IL-2 stimulated pSTAT5 in Tall-1 T cells; experiment: Cellular JAK3 potency assay: inhibition of IL-2 stimulated pSTAT5 in Tall-1 T cells
[2] = selectivity JAK3 over JAK1, difference of pKi
[3] = IL-2 stimulated pSTAT5, Tall-1 T cells

Compound	JAK 1 (pKi) (JAK1)	JAK 3 (pKi) (JAK3)	JAK3 (pKi)-JAK1 (pKi) (JAK3; selectivity: difference of pKi JAK3 and pKi JAK1)	Tyk 2 (pKi) (Tyk2)	JAK 2 (pKi) (JAK2)	Tall-1 (pIC50) ([1]; IL-2 stimulated pSTAT5 in Tall-1 T cells)	JAK3 (pKi)-JAK1 (pKi) (JAK3; [2])	Tall-1 (pIC50) [1, 3]
C=CC(=O)N1CC[C@H](Oc2cc(-c3ccc(O)c(Cl)c3)cc3[nH]nc(C#N)c23)C1	E (a pKi value of 7 or below (Ki of 100 nM or above))	B (a pKi value between 9 and 10 (Ki between 1 nM and 0.1 nM))	A (a value of 3 or above)	E (a pKi value of 7 or below (Ki of 100 nM or above))	E (a pKi value of 7 or below (Ki of 100 nM or above))	C (a pIC50 value between 6 and 6.7 (IC50 between 1 μM and 200 nM))	–	–
C=CC(=O)N1CCC(Cc2cc(-c3ccc(O)cc3)cc3[nH]ncc23)C1 (racemic)	E (a pKi value of 7 or below (Ki of 100 nM or above))	C (a pKi value between 8 and 9 (Ki between 10 nM and 1 nM))	–	–	–	–	B (a value of 2.3 to 3)	B (a pIC50 value between 6.7 (included) and 7.5 (IC50 between 200 nM and 32 nM))
C=CC(=O)N1CCCC(Cc2cc(-c3ccc(O)cc3)cc3[nH]ncc23)C1 (racemic)	E (a pKi value of 7 or below (Ki of 100 nM or above))	B (a pKi value between 9 and 10 (Ki between 1 nM and 0.1 nM))	–	–	–	–	A (a value of 3 or above)	B (a pIC50 value between 6.7 (included) and 7.5 (IC50 between 200 nM and 32 nM))
CN(C)C/C=C/C(=O)N1CCC(Cc2cc(-c3ccc(O)cc3)cc3[nH]ncc23)C1 (racemic)	E (a pKi value of 7 or below (Ki of 100 nM or above))	B (a pKi value between 9 and 10 (Ki between 1 nM and 0.1 nM))	–	–	–	–	A (a value of 3 or above)	C (a pIC50 value between 6 and 6.7 (IC50 between 1 μM and 200 nM))
CN(C)C/C=C/C(=O)N1CCCC(Cc2cc(-c3ccc(O)cc3)cc3[nH]ncc23)C1 (racemic)	E (a pKi value of 7 or below (Ki of 100 nM or above))	B (a pKi value between 9 and 10 (Ki between 1 nM and 0.1 nM))	–	–	–	–	A (a value of 3 or above)	C (a pIC50 value between 6 and 6.7 (IC50 between 1 μM and 200 nM))

Source: patent publication US10392368B2, “Pyrazolo and triazolo bicyclic compounds as JAK kinase inhibitors” (THERAVANCE BIOPHARMA R&D IP, LLC, priority 2017, dated 2019)
